Assay: Octanol-to-water partitioning assay
Type: physicochemical
Settings: 1-octanol / citric acid pH 5, room temperature
Experimental: FIG. 4 illustrates the octanol to water distribution of glucuronides and glucuronide-mE. Glucuronides and glucuronide-mE were incubated overnight in immiscible aqueous and organic phases (citric acid pH 5 and 1-octanol) under gentle shaking at room temperature. Samples from each phase were analyzed to characterize the distribution of the compounds. n=3-5
FIG. 5 illustrates the Log P of glucuronides and glucuronide-mE compounds in each phase of 1-octanol and citric acid pH 5 following the formula: log Poctanol/water=log ([solute]octanol/[solute]water). n=3-5. Error bars, SD
9-aminocamptothecin glucuronide (9AC-G), 5,6-dihydro-4H-benzo[de]quinoline-camptothecin-β-D-glucuronide (BQC-G) and 4-methylumbelliferyl-β-D-glucuronide (4MU-G) can be incubated in methanol in the presence of a strong acid (sulfuric acid) as a catalyzer (FIG. 2).
Distribution of the different compounds were measured by dilution in a 1:1 volume of octanol and 100 mM citric acid buffer at pH 5 (FIG. 4). The solutions were gently stirred for 24 hours at room temperature, spun down at 2,500×g and glucuronides or glucuronide-mE in each phase was quantified by HPLC and the partition coefficients were calculated as log Poctanol/water=log ([solute]octanol/[solute]water) ([…]).

With “5,6-dihydro-4H-benzo[de]quinoline camptothecin glucuronide methylester [BQC-GmE]” the “partition versus corresponding glucuronide” value was “increased partition into an organic phase”.
